Antibody variant affinities, Ab-14 light chain, assay B

Values reported by Li et al. 2023, doi:10.1038/s41467-023-39022-2 (FLAb copy).

The target is the same throughout: PDVDLGDISGINAS, from the HR2 region of SARS-CoV-2 spike.

Parent scFv Ab-14: VH joined to VL by a (GGGGS)3 linker. Changes lie in the light chain CDRs alone.
VH: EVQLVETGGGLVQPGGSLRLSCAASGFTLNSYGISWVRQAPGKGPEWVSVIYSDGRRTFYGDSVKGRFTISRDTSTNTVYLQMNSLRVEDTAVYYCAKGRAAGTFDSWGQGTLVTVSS
VL: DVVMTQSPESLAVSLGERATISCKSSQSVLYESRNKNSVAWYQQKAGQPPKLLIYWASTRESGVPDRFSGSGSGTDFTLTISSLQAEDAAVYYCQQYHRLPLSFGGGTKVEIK

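The starting antibody came from a phage panning campaign against this peptide. Designed CDR sequences, proposed from the first random library and measured here. Group labels follow the data file (En: ensemble of fine-tuned language models; GP: Gaussian process model; HC: hill climbing; Gen: genetic algorithm; Gibbs: Gibbs sampling; a sequence that several methods proposed may carry one label only). In AlphaSeq, yeast of one mating type display the scFv and yeast of the other type display the target. The frequency of each diploid, read from paired DNA barcodes, reflects how well the two displayed proteins bind. Scores were corrected for input abundance and mapped to Kd with protein pairs of known affinity run in the same pool. There are six technical replicates.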

Variants are written as CDR1, CDR2 and CDR3 of the light chain (limits as in the source). Parent: KSSQSVLYESRNKNSVA, WASTRES, QQYHRLPLS.
Variants here have more than six changes.
Values are apparent Kd, the geometric mean of the replicates that gave a signal; lower means stronger binding.
An entry "no signal" has no value in the source: the pair was not observed among the diploids in any replicate. This suggests poor binding but is not conclusive.
A sequence measured in both rounds can read differently, since the two assays cover different ranges.

For RVTIISDPYMENRNNIA / QTSERAH / QQYQMLPLA [En_Gibbs], the assay gave 580 pM (6 of 6 replicates). For QLYAVQDLTSKNSNNVA / EQTTREN / QQYHRLPLS [En_HC], the assay gave 13 nM (6 of 6 replicates). Variant MMGLCQNGYYQQNNEIA / DVNERAM / QQYGRLPLS [En_Gibbs] gave 53 nM (6 of 6 replicates). For KISMMYRFESTASNSIA / EMTTRAE / QSYHRLPLS [En_HC], the assay gave 3.7 nM (6 of 6 replicates). With KVSQLVNFEGKNKNSVA / QMSTRES / QQYDRLPLS [En_HC] the result was 1.9 nM (6 of 6 replicates). For KLSQSVCYEDRQKNSVA / NASTRMS / QQYHRLKLS [GP_Gibbs], the assay gave 100 nM (6 of 6 replicates). With KLPQSMNYESRNKNNVA / SASCRES / QQYHRLPLS [GP_Gibbs] the result was 690 pM (6 of 6 replicates). Variant TISQSTYWESRNKNSVA / QTSTREA / QDYDRLPLS [En_HC] showed 360 nM (5 of 6 replicates).

Variant QLDWYNTYATASASNIA / DGAQRAN / QQYMRLPLM [En_Gibbs] gave 740 pM (6 of 6 replicates). Variant SLGLVTMLEYAGRNNVA / NNSTREK / QQYDRLPLS [En_Gen] gave 48 nM (6 of 6 replicates). For SIGLATMLEEYARNSVA / NNSTREE / QQYDRLPLS [En_Gen], the assay gave no signal (0 of 6 replicates). With TLMQVGGYEMNQHNSIA / DLRTRED / QQYHRLPLS [En_HC] the result was 9.2 nM (6 of 6 replicates). For KLMQEQEYQSRNKNSVA / HASERES / QQYHRLPLS [GP_Gibbs], the assay gave 3.4 nM (6 of 6 replicates). Variant NLNTYYEGGFLNTDNIA / HGNMVEA / QQYDRLPLS [En_Gibbs] gave 3.9 nM (6 of 6 replicates). Variant KLSQITGHLSVSKNNVA / EMETRAN / QQYDRLPLS [En_Gen] showed 4.3 nM (6 of 6 replicates). For KVTMYELEMRFNGSAVA / AAEVRAP / QQYWRLPLE [En_Gibbs], the assay gave 130 nM (5 of 6 replicates).

For MMSQVTGQGTRHRNNVA / QTETREP / QQYDRLPLV [En_Gen], the assay gave 7.8 nM (6 of 6 replicates). Variant KMSQSVDPLDRNKNSVA / NASTREM / QQYHRLPLS [GP_Gibbs] showed 1.2 nM (6 of 6 replicates). Variant TVSQVHEMLSHNKDSVA / DMNTRES / QQYDRLPLS [En_HC] gave 23 nM (6 of 6 replicates). Variant NIVGRVEDNQTENNAIA / DAHCRAG / QQYSRLPLS [En_Gibbs] showed 6.1 nM (6 of 6 replicates). With LISGVIDYGSRNYNSVA / QTSTRES / QQYDRLPLS [En_HC] the result was 3.3 nM (6 of 6 replicates). With KLTTQVGHQMDHKNSIA / EVDMVAC / QQYMHLPLI [En_Gibbs] the result was 30 nM (6 of 6 replicates). For HIFPQEYVYGKNNNNVA / DGSTQAW / QQYHRLPLS [En_Gibbs], the assay gave 750 pM (6 of 6 replicates). With KLQQWVLYEGRNKNSVA / QASQRSD / QQYHRLPLS [GP_Gibbs] the result was 780 pM (6 of 6 replicates).

For KLMNQMGGIQQMKNSIA / NLEIGAR / QQYAHLPLV [En_Gibbs], the assay gave no signal (0 of 6 replicates). Variant KIGMTLNTLMHTKNNVA / DLVTREH / QQYHRLPLS [En_Gen] gave 740 pM (6 of 6 replicates). With HITYGMMLYGRHSKSIA / QAEERAK / QQYDRLPLI [En_Gen] the result was 11 nM (6 of 6 replicates). Variant KLGMWTYGPTEAKYNVA / EDEMRWY / QQYDRLPLI [En_Gibbs] gave no signal (0 of 6 replicates). Variant KLSMQVMMESRNKNSVA / SANTREE / QQYHRLPLS [GP_Gibbs] showed no signal (0 of 6 replicates). Variant MISNVMNSLTHTGNNVA / DLQERSD / QQYFRLPLS [En_Gen] showed 4.7 nM (6 of 6 replicates). For KISQMVRVGSTLSNSIA / EEQTRAK / QQYHRLPLS [En_Gen], the assay gave 7.8 nM (4 of 6 replicates). For KLQNQMWTMGKQNQAIA / QGAITRV / QQYQHLPLW [En_Gibbs], the assay gave 86 nM (6 of 6 replicates).

Variant KLYQMTGIESHAKNSLA / DANRRAD / QQYHRLPLS [En_HC] gave 700 pM (6 of 6 replicates). Variant MFKQSIEGNPLNTNNIA / DADSVTS / QQYARLPLF [En_Gibbs] gave 1.3 nM (6 of 6 replicates).

The parent sequence was in this pool as ten entries: three were never detected, three once, and four in most replicates, with averages from 2.2 nM to 240 nM.
The authors' rule: three or more of the six replicates give a measured affinity, fewer mean a poor binder.
Empty control strains, which show no peptide, gave a signal in 4% of pairings with all light chain designs; the median was 430 nM and 95% of these signals were weaker than 38 nM. No background was subtracted.